From patent US11419951B2, “Peptide-based cancer imaging agents” (Ohio State Innovation Foundation, priority 2017, dated 2022)

Test system: Cal 27 cells
Assay: Confocal microscopy / FACS of live unfixed Cal 27 cells (internalization and mechanism)
Settings: 100 μM for 1.5 h before 10 μM 4Iphf-HN18-Cy5

Substance: (4Iph)(f)LPNSNHIKQGL (not fully specified (N-terminus)) [Compound 4Iphf-HN18]
- blocking of 4Iphf-HN18-Cy5 internalization by unlabeled peptide: stopped the internalization

No end group written: not given here.
